Data: PubChem BioAssay AID1665 (Sanford-Burnham Center for Chemical Genomics, 2009)
Only a part is listed here, and it is no random draw. The source made the active and inactive calls.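 The calls were made as follows: active = nuclear translocation activity above 50% at 5 µM, with a well cell count of 50 or more; inconclusive = wells under 50 cells across six images, flagged as toxic; inactive = the rest.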

test: modulators of beta-catenin nuclear translocation, primary screen, imaging, HeLa cells, immunofluorescence, high-content (AID 1665); details: at 5 µM, active compounds read high;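 also: per-cell ratio of nuclear to cytoplasmic median beta-catenin stain intensity; plate controls were DMSO negative control for no effect and GSK-3 inhibitor IX positive control for full effect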

| SMILES | nuclear translocation activity |
| --- | --- |
| CC(C)(C)c1ccc(OP(C)(=O)Nc2ccc(SC(F)(F)F)cc2)cc1 (stereo unspecified) | inactive: -0.3% |
| Cc1ccc(OP(=O)(Nc2ccc([N+](=O)[O-])cn2)Oc2ccc(C)cc2)cc1 | inactive: -1.8% |
| Cc1ccc2nc3c(c(C)c2c1)CC(C(Cl)Cl)S3 (stereo unspecified) | inactive: -1.9% |
| O=[N+]([O-])c1ccc2c(c1)C=Nc1ccccc1O2 | inactive: 0% |
| C[As](=O)(O)c1cccc(C(=O)O)c1 | inactive: -1.1% |
| O=[As](O)(c1ccc(O)cc1)c1ccccc1O | inactive: -0.4% |
| COc1ccc(N/C(=N/P(=O)(N2CCOCC2)N2CCOCC2)N2CCOCC2)cc1 | inactive: -0.9% |
| COc1cc(I)ccc1[As](=O)(O)O | inactive: 0.4% |
| COc1ccc2nc(NP(=O)(c3ccccc3)c3ccccc3)sc2c1 | inactive: -1.2% |
| Cc1c2c(nc3ccccc13)SC(C(Cl)Cl)C2 (stereo unspecified) | inactive: 1.1% |
| CCN(CC)CCCOC(=O)C(O)(c1ccccc1)c1ccccc1 | inactive: -0.9% |
| Cc1cc(=O)[nH]c(N[N+](=O)[O-])n1 | inactive: -2.8% |
| O=C(OC1CN2CCC1CC2)C12CC3CC(CC(C3)C1)C2 (stereo unspecified) | inactive: 0.9% |
| CCC(C)N(CC(C)C)C(=S)SC(NC(C)=O)C(Cl)(Cl)Cl (stereo unspecified) | inactive: -5.6% |
| CP(=O)(Nc1ccccn1)Oc1ccc(Cl)cc1 (stereo unspecified) | inactive: -0.2% |
| CCOP(C)(=S)SCC(=O)NC(C)C(=O)O (stereo unspecified) | inactive: -4.5% |

| SMILES | nuclear translocation activity |
| --- | --- |
| CCOC(=O)c1ccc(NC(=O)C(C)(CCl)SC)cc1 (stereo unspecified) | inactive: -1.5% |
| Cc1cc(C)cc(OP(C)(=O)Nc2ccc(SC(F)(F)F)cc2)c1 (stereo unspecified) | inactive: -2.9% |
| CCc1ccc(OP(C)(=O)N2CCN(c3ccc([N+](=O)[O-])cc3)CC2)cc1 (stereo unspecified) | inactive: 1.1% |
| CP(=O)(NC(=O)Nc1ccccc1)Oc1ccccc1 (stereo unspecified) | inactive: -0.3% |
| O=C(COc1ccccc1)OC1CN2CCC1CC2 (stereo unspecified) | inactive: -1.3% |
| CP(=O)(Oc1ccccc1)OC(c1ccccc1)C(F)(F)F (stereo unspecified) | inactive: -0.9% |
| CP(=O)(Nc1ccc(SC(F)(F)F)cc1)Oc1ccc(Cl)cc1 (stereo unspecified) | inactive: 0.4% |
| Cc1cccc(C)c1OP(C)(=O)Nc1ccc(SC(F)(F)F)cc1 (stereo unspecified) | inactive: 0.2% |
| COc1ccccc1OP(C)(=O)Nc1ccccc1 (stereo unspecified) | inactive: 0% |
| Cc1cc(SC(NC=O)C(Cl)(Cl)Cl)ncn1 (stereo unspecified) | inactive: -3.5% |
| O=P(Nc1ccccn1)(c1cccc2ccccc12)c1cccc2ccccc12 | inactive: 0.1% |
| O=[N+]([O-])c1ccc(Nc2ccc(Oc3ccc([N+](=O)[O-])cc3[N+](=O)[O-])cc2)c([N+](=O)[O-])c1 | inactive: 2.7% |
| CCOC(=O)Nc1cccc([As](=O)(O)O)c1 | inactive: -0.9% |
| Cc1cc(SC(NC(=O)c2ccccc2)C(Cl)(Cl)Cl)nc(C(C)C)n1 (stereo unspecified) | inactive: 0.8% |
| CCOC(=O)Nc1ccc([As](=O)(O)O)c(O)c1 | inactive: -1.4% |
